{
  "source": "patent US12005056B2",
  "about": "“Centrally-active ghrelin agonist and medical uses thereof” (Helsinn Healthcare SA, priority 2018, dated 2024)",
  "system": "oxaliplatin-treated Balb/C mice",
  "conditions": "oxaliplatin 6 mg/kg i.p. twice weekly for 4 weeks",
  "data": [
    {"smiles": "O=C1[O][Pt]2([NH][C@@H]3CCCC[C@H]3[NH]2)[O]C1=O", "note": "[Oxaliplatin, reference compound]", "values": [
      {"measurement": "decrease in digital NCV vs. vehicle-treated mice", "value": "10.6±1.6", "unit": "%"}
    ]}
  ]
}
